Laboratory results published in article PMC3064429 (Bioorganic & medicinal chemistry, 2011).

Protein sequences, listed by entry. Tags and fused reporters are not part of them. Residues count along the entry.
UniProt H0V073, 1-176: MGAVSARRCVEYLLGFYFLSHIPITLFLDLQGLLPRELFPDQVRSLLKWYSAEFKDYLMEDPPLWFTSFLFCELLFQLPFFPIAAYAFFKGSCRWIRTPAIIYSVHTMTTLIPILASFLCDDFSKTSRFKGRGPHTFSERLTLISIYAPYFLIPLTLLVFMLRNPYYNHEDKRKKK
UniProt Q60492, whole entry: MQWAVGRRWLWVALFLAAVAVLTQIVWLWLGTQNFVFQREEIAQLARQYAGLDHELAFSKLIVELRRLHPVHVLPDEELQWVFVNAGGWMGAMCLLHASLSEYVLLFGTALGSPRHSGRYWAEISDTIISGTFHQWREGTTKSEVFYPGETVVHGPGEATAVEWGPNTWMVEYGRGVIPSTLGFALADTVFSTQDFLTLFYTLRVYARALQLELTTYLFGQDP

How the values were obtained:
σ2 receptor = σ2 receptor (Cavia porcellus, UniProt H0V073); assay: Competition binding assay at σ2 receptors with [3H]DTG / 500 nM; design: species or system guinea pig; conditions: ratio of Ki values
σ1 receptor = σ1 receptor (Cavia porcellus, UniProt Q60492); assay: Competition binding assay at σ1 receptors with [3H]; conditions: read-out: Ki (nM) σ1; [3H](+)-PTZ, guinea pig brain membranes; mean ± SEM; n = 4

Substance: 5-bromo-N-(4-((3,4-dimethoxyphenethyl)(methyl)amino)butyl)-2,3-dimethoxybenzamide [Compound 9]
- Selectivity Ki σ1 / Ki σ2 (σ2 receptor): 0.27
- Ki (σ1 receptor): 583 ± 28 nM
